Test results taken from patent US20260125669A1, “METHODS AND COMPOSITIONS FOR SYNTHETIC EVOLUTION” (U[…] FABRA, priority 2022, published 2026).

System: lentiviral payload (GFP gene)
Experiment: drug-induced mutagenesis: nucleoside analogs added to producer cells during lentiviral vector production
Assay type: cell-based
Procedure: Cells were produced in 10-cm dishes seeded with 4.9×10^6 HEK293T cells a day prior transfection using 0.72 pmol of pCMV-VSV-G envelope plasmid, 1.64 pmol of pSICO or pRRL vector payloads (transfer plasmid) and 1.30 pmol psPAX2 plasmid or psPAX2 mutants. Plasmids were mixed in 500 μL Optimem and 100 mg polyethyleneimine (PEI).
10 μL of vector were used for infecting HEK293T cells at an approximate MOI of 1. Genomic DNA of infected cells was extracted 48 hours post-infection using the DNeasy Blood & Tissue Kit (Qiagen's ref. 69504) and the sequence of interest to be evolved was amplified and sequenced with an Illumina Miseq 2×250PE sequencer.
For assessing drug-induced mutagenesis, 5-azacytidine (Sigma's ref. A2385-100MG) or 5-hydroxydeoxycytidine (5-OH-dC) was added to the cells at different doses and sequenced as described below.
A first tested aspect was the addition, in the producer cells, of the nucleoside analogs 5-azacytidine (5-aza-C) and 5-hydroxydeoxycytidine (5-OH-dC), which were described in the art to increase the viral reverse transcriptase error rate.

## Nc1ncn([C@@H]2O[C@H](CO)[C@@H](O)[C@H]2O)c(=O)n1 [5-aza-C, 5-azacytidine]
5-10 mM in the producer cells
  functionality of the GFP gene: near-complete loss of functionality of the GFP gene
Added in the producer cells, FIG. 3
  effect on the viral titter: had an effect
